## AlphaSeq binding of Ab-95 light chain variants to a spike HR2 peptide

Reference: Engelhart et al. 2022, doi:10.1038/s41597-022-01779-4. File: FLAb, binding data.

Target peptide (SARS-CoV-2 spike, HR2 region): PDVDLGDISGINAS

The variants keep the heavy chain, the linker and the frameworks of Ab-95 (scFv order VH, a 15-residue (Gly4Ser)3 linker, VL).
VH: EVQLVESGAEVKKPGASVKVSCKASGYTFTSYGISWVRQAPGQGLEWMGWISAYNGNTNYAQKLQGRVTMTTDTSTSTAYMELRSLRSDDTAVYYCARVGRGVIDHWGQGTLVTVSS
VL: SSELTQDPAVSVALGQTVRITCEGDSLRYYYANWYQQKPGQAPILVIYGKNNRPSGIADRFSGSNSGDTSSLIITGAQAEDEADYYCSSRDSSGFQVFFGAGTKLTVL

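The starting antibody came from a phage panning campaign against this peptide. The library (AAYL52) carries one to three amino acid substitutions per variant, with no insertions or deletions. Affinity was read by AlphaSeq, a pooled yeast mating assay with surface-displayed partners. The frequency of each diploid, read from paired DNA barcodes, reflects how well the two displayed proteins bind. The ratio of observed to expected reads was calibrated, replicate by replicate, on BCL2-family standards whose Kd was known from biolayer interferometry. Mating was done three times.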

Substitutions are numbered in sequence along the VL above, starting at 1 (not Kabat). Values are log10 of the apparent Kd in nM; lower means stronger binding. A pair that was not seen in that replicate is written "nd"; this usually means weak binding, but a binder can also be missed. Three control strains display no target. For library AAYL52, 28% of the pairings with them gave a signal, with a median of 3.91 and one signal in twenty below 2.90, so weak values seen in few replicates may be background. For each scFv, signals with the empty controls are counted beside the result, with their mean in brackets.

| changes | log10 Kd, replicates | control signals |
|---|---|---|
| S26I+V97P | 2.85 / nd / nd | 2/9 (3.88) |
| S88N+F95K+Q96S | nd / 2.50 / nd | 1/9 (3.79) |
| R28L+G49Y+S92H | 3.91 / 2.89 / nd | 0/9 |
| Y31M+K50V+P54Q | 2.82 / 3.22 / 3.11 | 3/9 (4.20) |
| G24Y+G49I+R53S | 4.21 / nd / nd | 4/9 (4.03) |
| D25V+S55M+Q96W | 1.98 / 1.66 / 2.25 | 5/9 (3.55) |
| N52R+S92P+Q96R | 4.01 / nd / nd | 0/9 |
| D25K+N33W+S55D | 4.31 / nd / nd | 4/9 (3.84) |
| A32L+N33P+N51A | 3.72 / nd / nd | 1/9 (3.05) |
| S26Q+S93Y+F98C | 3.48 / 3.32 / 3.27 | 1/9 (3.45) |
| K50S+S92L+F98I | nd / 2.35 / nd | 0/9 |
| N51S+S88F | 2.65 / 3.05 / 2.28 | 4/9 (3.54) |
| E23H+D25W+G49H | 4.07 / nd / nd | 1/9 (3.00) |
| D25H+A32D | 3.04 / 5.41 / 4.25 | 3/9 (3.17) |
| N33W+R53A+G94F | nd / nd / 3.91 | 0/9 |
| N51H+R53F+D91F | 4.87 / nd / nd | 2/9 (3.59) |
| G24F+G49P | nd / nd / nd | 2/9 (4.55) |
| G24N+Y30R+G94F | 2.83 / 3.00 / 2.83 | 5/9 (3.91) |
| N33S+N52G | 3.59 / 3.07 / 2.71 | 4/9 (3.89) |
| D25L+Y29H+A32K | 3.01 / 2.96 / 2.96 | 3/9 (3.64) |
| D25P+G94C+Q96W | 2.79 / 4.15 / 4.25 | 1/9 (3.67) |
| R28K+R90G+F98M | 4.91 / 3.20 / nd | 1/9 (4.29) |
| S89I | 2.44 / 1.97 / 2.01 | 4/9 (4.21) |
| D25I+Y31R+S93L | 3.32 / 3.15 / 2.44 | 3/9 (4.03) |
| Y29P+N51Q+S92E | 3.60 / 3.03 / 3.23 | 2/9 (4.60) |
| G49M+S89H+V97W | nd / nd / nd | 1/9 (3.48) |
| Y31V+R90S | 5.23 / nd / nd | 4/9 (3.84) |
| E23F+P54N+R90C | 3.96 / 2.68 / nd | 0/9 |
| Y30D+A32N+G94P | nd / nd / nd | 3/9 (3.94) |
| Y30M+S55D+Q96A | 1.75 / 1.65 / 1.22 | 2/9 (4.44) |
| R28P+Y31R+S92G | 3.33 / 3.56 / 2.05 | 3/9 (4.07) |
| E23S+Y30H+S93W | 2.19 / 2.46 / 1.76 | 0/9 |
| E23W+K50F+S89V | 3.83 / 3.24 / 3.13 | 7/9 (3.77) |
| E23R+S92C+F95M | 3.88 / 4.52 / 2.55 | 0/9 |
| R28V+R90D+F98D | nd / nd / nd | 2/9 (3.76) |
| Y31Q+N52S+S55Y | 1.51 / 1.38 / 1.08 | 6/9 (4.74) |
| D25F+S26I+S93A | 4.25 / nd / nd | 1/9 (4.55) |
| R28I+R53M+R90T | nd / nd / nd | 1/9 (4.39) |
| Y29F+S88R+Q96W | 2.97 / 2.52 / 3.03 | 7/9 (3.72) |
| E23K+G49Q+P54Y | 3.58 / 3.44 / 2.83 | 2/9 (4.04) |
| D25N+A32Q+D91A | 4.79 / nd / nd | 0/9 |
| Y29T+K50Y+S88C | 3.13 / 3.70 / 4.04 | 3/9 (3.79) |
| G94D+F98V | 3.28 / nd / nd | 3/9 (3.75) |
| N33F+K50D+S88Q | nd / nd / nd | 1/9 (4.22) |
| G49D+S93I+F98V | 4.23 / nd / nd | 1/9 (4.79) |
| G49R+N52V+G94K | nd / nd / nd | 2/9 (4.51) |
| D25F+R90Q+S92V | 3.54 / nd / nd | 2/9 (3.54) |
| Y30C+G49F+P54F | nd / nd / nd | 3/9 (3.78) |
| Q96I+F98T | 2.62 / 2.55 / 2.19 | 1/9 (3.71) |
| G49F+V97Y+F98T | 3.03 / nd / nd | 1/9 (3.86) |
| N52P+S93G+G94R | 3.80 / 5.35 / nd | 4/9 (4.12) |

A selection of 8 entries from above:

| changes | log10 Kd, replicates | control signals |
|---|---|---|
| Y30C+G49F+P54F | nd / nd / nd | 3/9 (3.78) |
| S89I | 2.44 / 1.97 / 2.01 | 4/9 (4.21) |
| G24F+G49P | nd / nd / nd | 2/9 (4.55) |
| S88N+F95K+Q96S | nd / 2.50 / nd | 1/9 (3.79) |
| Q96I+F98T | 2.62 / 2.55 / 2.19 | 1/9 (3.71) |
| R28P+Y31R+S92G | 3.33 / 3.56 / 2.05 | 3/9 (4.07) |
| Y29P+N51Q+S92E | 3.60 / 3.03 / 3.23 | 2/9 (4.60) |
| D25F+R90Q+S92V | 3.54 / nd / nd | 2/9 (3.54) |

For reference, the parent read 2.31 as the reference entry and 2.25 as a member of this library.